ChEMBL document CHEMBL1909046, “DrugMatrix in vitro pharmacology data”

Protein sequences, listed by entry. Tags and fused reporters are not part of them. Lines headed by an entry give the natural chain unless they say otherwise; changes in a name come on top.
UniProt P41145: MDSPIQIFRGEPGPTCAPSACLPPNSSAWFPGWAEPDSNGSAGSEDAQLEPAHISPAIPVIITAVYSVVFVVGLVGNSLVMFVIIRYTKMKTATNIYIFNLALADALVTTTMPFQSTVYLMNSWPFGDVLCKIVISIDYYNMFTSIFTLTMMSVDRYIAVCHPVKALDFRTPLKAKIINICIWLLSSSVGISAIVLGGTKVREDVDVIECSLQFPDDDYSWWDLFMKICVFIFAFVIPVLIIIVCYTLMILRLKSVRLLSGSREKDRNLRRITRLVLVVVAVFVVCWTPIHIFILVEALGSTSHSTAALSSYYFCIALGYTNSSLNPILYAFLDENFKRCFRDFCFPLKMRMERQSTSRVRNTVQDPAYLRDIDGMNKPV
UniProt P35372, whole entry, looked up: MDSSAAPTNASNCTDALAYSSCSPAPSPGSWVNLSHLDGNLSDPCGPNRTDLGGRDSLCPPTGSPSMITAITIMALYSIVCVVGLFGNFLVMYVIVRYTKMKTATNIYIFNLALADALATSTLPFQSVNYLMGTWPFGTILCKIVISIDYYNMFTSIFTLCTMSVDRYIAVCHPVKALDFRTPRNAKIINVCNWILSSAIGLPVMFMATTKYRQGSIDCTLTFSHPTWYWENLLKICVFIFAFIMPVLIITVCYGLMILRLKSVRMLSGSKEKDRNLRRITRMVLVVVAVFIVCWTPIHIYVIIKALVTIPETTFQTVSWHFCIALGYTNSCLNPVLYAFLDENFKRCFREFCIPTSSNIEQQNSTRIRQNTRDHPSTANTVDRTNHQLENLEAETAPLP

Experiments:
[1] = target: Kappa-type opioid receptor (Homo sapiens, UniProt P41145); test: DRUGMATRIX: Opiate kappa (OP2, KOP) radioligand binding (ligand: [3H] Diprenorphine); settings: hek293
Mu-type opioid receptor = Mu-type opioid receptor (Homo sapiens, UniProt P35372); test: DRUGMATRIX: Opiate mu (OP3, MOP) radioligand binding (ligand: [3H] Diprenorphine); settings: cho-k1

CC1=C2C(=CO[C@H](C)[C@H]2C)C(O)=C(C(=O)O)C1=O
Not Active: IC50 [1] | Ki [1] | IC50 (Mu-type opioid receptor) | Ki (Mu-type opioid receptor)

C[N+](C)(C)C[C@H](O)CC(=O)[O-]
Not Active: IC50 [1] | Ki [1]

COP(=O)(OC)OC=C(Cl)Cl [DICHLORVOS]
Not Active: IC50 [1] | Ki [1] | IC50 (Mu-type opioid receptor) | Ki (Mu-type opioid receptor)

Cc1ccc(/N=C/N(C)/C=N/c2ccc(C)cc2C)c(C)c1
Not Active: IC50 [1] | Ki [1] | IC50 (Mu-type opioid receptor) | Ki (Mu-type opioid receptor)

CC(=O)CC(c1ccccc1)c1c(O)c2ccccc2oc1=O (stereo not drawn) [WARFARIN]
Not Active: IC50 [1] | Ki [1] | IC50 (Mu-type opioid receptor) | Ki (Mu-type opioid receptor)

NN
Not Active: IC50 [1] | Ki [1] | IC50 (Mu-type opioid receptor) | Ki (Mu-type opioid receptor)

O=C/C=C/c1ccccc1
Not Active: IC50 [1] | Ki [1] | IC50 (Mu-type opioid receptor) | Ki (Mu-type opioid receptor)

CN1C[C@H](C(=O)N[C@]2(C)O[C@@]3(O)[C@@H]4CCCN4C(=O)[C@H](Cc4ccccc4)N3C2=O)C[C@@H]2c3cccc4[nH]cc(c34)C[C@H]21
Not Active: IC50 [1] | Ki [1]

CC(C)C[C@H]1C(=O)N2CCC[C@H]2[C@]2(O)O[C@](NC(=O)[C@@H]3C=C4c5cccc6[nH]c(Br)c(c56)C[C@H]4N(C)C3)(C(C)C)C(=O)N12
Not Active: IC50 [1] | Ki [1] | IC50 (Mu-type opioid receptor) | Ki (Mu-type opioid receptor)

CC[C@@H](CO)NC(=O)[C@@H]1C=C2c3cccc4[nH]cc(c34)C[C@H]2N(C)C1
Not Active: IC50 [1] | Ki [1] | IC50 (Mu-type opioid receptor) | Ki (Mu-type opioid receptor)

COc1ccc(C[C@H]2NC[C@H](O)[C@H]2OC(C)=O)cc1
Not Active: IC50 [1] | Ki [1] | IC50 (Mu-type opioid receptor) | Ki (Mu-type opioid receptor)

Clc1cc2c(cc1Cl)Oc1cc(Cl)c(Cl)cc1O2
Not Active: IC50 [1] | Ki [1] | IC50 (Mu-type opioid receptor) | Ki (Mu-type opioid receptor)

C=C1[C@@H]2CCC3[C@@](CC[C@@H]4[C@H](C(=O)O)C[C@@H](O[C@@H]5O[C@H](CO)[C@@H](OS(=O)(=O)[O-])[C@H](OS(=O)(=O)[O-])[C@H]5OC(=O)CC(C)C)C[C@@]34C)(C2)[C@@H]1O.[K+].[K+] (stereo partly drawn) [ATRACTYLOSIDE]
Not Active: IC50 [1] | Ki [1] | IC50 (Mu-type opioid receptor) | Ki (Mu-type opioid receptor)
